The text below walks through data of ChEMBL document CHEMBL3612019, “Revisiting 1,3,4-Oxadiazol-2-ones: Utilization in the Development of ABHD6 Inhibitors” (Bioorg Med Chem, 2015).

Common to all, as to type: cell-based
Assay [1] has as its target T1, Monoacylglycerol lipase ABHD6 (Homo sapiens, UniProt Q9BV23).
T1 sequence (Q9BV23 whole entry): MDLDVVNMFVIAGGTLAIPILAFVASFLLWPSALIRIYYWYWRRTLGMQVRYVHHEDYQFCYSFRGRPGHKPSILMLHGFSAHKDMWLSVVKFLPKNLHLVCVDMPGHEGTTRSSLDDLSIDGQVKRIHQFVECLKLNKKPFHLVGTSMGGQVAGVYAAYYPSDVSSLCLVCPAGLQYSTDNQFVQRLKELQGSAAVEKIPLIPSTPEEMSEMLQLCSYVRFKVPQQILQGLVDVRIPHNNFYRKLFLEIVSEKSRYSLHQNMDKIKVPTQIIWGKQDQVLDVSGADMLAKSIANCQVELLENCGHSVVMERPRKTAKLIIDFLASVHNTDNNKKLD
The experiment in a line: Inhibition of human ABHD6 expressed in HEK293 cells at 1 uM pre-incubated for 10 mins before 2-AG substrate addition followed by rapid 40 fold compound dilution measured after 10 mins by HPLC method. In a few lines: (§1)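 Reversibility test in 96-well format using a 40-fold dilution method first described for MAGL inhibitors. The inhibitor-treated hABHD6 preparation is rapidly diluted 40-fold, then activity is read at incubation times of 10, 30, 60 and 90 min. Values are pIC50, as means ± SEM of three to seven independent experiments.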

Assay [2] deals with T1, Monoacylglycerol lipase ABHD6. The experiment in a line: Inhibition of human ABHD6 expressed in HEK293 cells at 1 uM pre-incubated for 10 mins before 2-AG substrate addition followed by rapid 40 fold compound dilution measured after 30 mins by HPLC method. The method, boiled down: as §1
For assay [3] the target is unchanged. Briefly: Inhibition of human ABHD6 expressed in HEK293 cells at 1 uM pre-incubated for 10 mins before 2-AG substrate addition followed by rapid 40 fold compound dilution measured after 60 mins by HPLC method. The method, boiled down:
as §1

For assay [4] the target is unchanged. Briefly: Inhibition of human ABHD6 expressed in HEK293 cells at 1 uM pre-incubated for 10 mins before 2-AG substrate addition followed by rapid 40 fold compound dilution measured after 90 mins by HPLC method. In a few lines: as §1

SMILES strings stand for the structures.

In the case of `CCCCCCCCCCC[C@@H](C[C@@H]1OC(=O)[C@H]1CCCCCC)OC(=O)[C@H](CC(C)C)NC=O` [ORLISTAT], the IC50 is 0.0132 µM in assay [1], 0.0141 µM in assay [2], 0.02 µM in assay [3] and 0.0372 µM in assay [4].
